# From patent US20220369688A1, “ORAL COMPOSITIONS AND RELATED METHODS FOR REDUCING THROAT IRRITATION” (NICOVENTURES TRADING LIMITED, priority 2021, published 2022)
# Conditions: 1000 ppm nicotine, 1 molar equivalent sodium benzoate
structure (smiles),measurement,value
CN1CCCC1c1cccnc1 (centres unmarked) [nicotine],nicotine partitioned in octanol due to benzoic acid (25.5/28.3),90%
same,total nicotine partitioned into octanol due to propensity of free nicotine (28.3-25.5),2.8%
